Assay results taken from patent US7901894B2, “Kinase inhibitors” (The Research Foundation of State University of New York, priority 1999, dated 2011).

How the values were obtained:
LA25 cells = experiment: Growth of LA25 cells (temperature-sensitive pp60^v-src transformant of NRK); conditions: 25 μM; relative to LA25 growth at non-permissive 40° C.
NRK cells = experiment: Growth of non-transformed normal rat kidney (NRK) cells; conditions: concentration increased up to 400 μM, LA25 at 40° C. and at 33° C.

O=C(Nc1cccc(O)c1)c1cc2ccc(O)cc2cc1O
inhibition of LA25 cell growth at permissive 33° C. (LA25 cells): approximately 50%
basal cell growth (cell toxicity) (NRK cells): not only does not decrease but actually increases somewhat
